Binding of CDR-mutated scFvs to a peptide of the spike HR2 region

Source: Li et al. 2023 (doi:10.1038/s41467-023-39022-2), MIT Lincoln Laboratory and A-Alpha Bio; data file from the FLAb repository.

Target: peptide PDVDLGDISGINAS, taken from heptad repeat 2 (HR2) of SARS-CoV-2 spike.

Each scFv is VH, a (GGGGS)3 linker, VL, as in the parent Ab-14, and differs from it in the CDRs of the light chain only.
VH: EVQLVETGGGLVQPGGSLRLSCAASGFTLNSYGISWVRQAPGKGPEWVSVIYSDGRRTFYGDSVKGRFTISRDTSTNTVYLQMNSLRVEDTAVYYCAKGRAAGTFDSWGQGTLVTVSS
VL: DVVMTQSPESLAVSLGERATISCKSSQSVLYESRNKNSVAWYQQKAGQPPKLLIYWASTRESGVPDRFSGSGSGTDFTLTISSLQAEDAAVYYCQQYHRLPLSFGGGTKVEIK

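The starting antibody came from a phage panning campaign against this peptide. These sequences belong to a second round, designed from the earlier measurements on random variants of the parent. Group labels follow the data file (Ctrl: baseline library sampled from a position-specific scoring matrix, with some repeated check sequences; En: ensemble of fine-tuned language models; GP: Gaussian process model; HC: hill climbing; Gen: genetic algorithm; Gibbs: Gibbs sampling; a sequence that several methods proposed may carry one label only). The scFvs were displayed on barcoded MATa yeast, the peptide on MATalpha yeast. Mating (16 h, 30 °C) was followed by selection of diploids and sequencing of their barcodes. Each replicate has its own calibration line, from reference interactions of the BCL2 family. There are six technical replicates.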

Variants are written as CDR1, CDR2 and CDR3 of the light chain (limits as in the source). Parent: KSSQSVLYESRNKNSVA, WASTRES, QQYHRLPLS. The Kd shown is the geometric mean over detected replicates; a lower Kd is a better binder. An entry "nd" has no value in the source: the pair was not observed among the diploids in any replicate. This suggests poor binding but is not conclusive. The list is sorted by this average, lowest first, undetected variants last.

CDR-L1,CDR-L2,CDR-L3,group,Kd,detected
KLSMSVLYESRNKNNVA,GASTRES,QQYHRLPLS,GP_Gen,200 pM,6/6
KLSQSVLYESRNKNNVA,EASTREK,QQYHRLPLS,GP_Gen,230 pM,6/6
KVSQAVPYESRNKNNVA,DGSTRES,QQYHRLPLS,GP_Gibbs,290 pM,6/6
NIVGRVEDKQTETANIA,DAHCRAG,QQYSRLPLS,En_Gibbs,320 pM,6/6
KLDAWQDYESRNKASVA,QASTRES,QQYHRLPLS,GP_Gibbs,440 pM,6/6
KLQQSVLYESRNKNNVA,HASTRED,QQYARLPLS,GP_HC,510 pM,6/6
KMAQGWGYESRNKNNVA,NASQRES,QQYHRLPLS,GP_Gibbs,610 pM,6/6
KSSQHVLGESRNKNSVA,QASTRES,QQYHRLPLS,Ctrl,660 pM,6/6
KLESEQYHFGADHQSIA,DAHISMN,QQYMHLPFT,En_Gibbs,780 pM,6/6
KLQQQSEYGSRNKNSVA,QASTREQ,QQYHRLPLS,GP_Gibbs,850 pM,6/6
KLMQSEPYESRNKNSVA,NASTRES,QQYHRLPLS,GP_Gen,880 pM,6/6
KSSQSWLYESRNKNSVA,GASHREV,QQYHRLPLS,GP_HC,950 pM,6/6
KQSQLVWYEQRNKNSVA,EGSTRES,QQYHRLPLS,GP_Gibbs,970 pM,6/6
KSSPVVLYESQNKNSVA,NASTRMS,QQYHRLPLS,GP_HC,1.0 nM,6/6
KFSQSELYESRNKNSVA,NASYRES,QQYHRLPLS,GP_Gen,1.1 nM,6/6
KVSQSVLYEQRNKNSVA,HASTRES,QQYHRLPLS,GP_Gen,1.2 nM,6/6
KLKYQADHYGMQWNNVA,QADIRAP,QQYNKLPLN,En_Gibbs,1.2 nM,6/6
MMSSLMGYESRHINNVA,QTSTRED,QQYDRLPLI,En_Gen,1.3 nM,6/6
KSDQSLLYESNNKNSVA,EASTRES,QQYHRLPLS,Ctrl,1.3 nM,6/6
KFSQSVLYESRTYNSVA,NASTRYS,QQYHRLPLS,GP_HC,1.4 nM,6/6
MLSDTVMQGSYYKNSVA,QESTRAD,QQYHRLPLS,En_HC,1.5 nM,6/6
NIVGRVEDKQTENNAIA,DAHCRAG,QQYSRLPLS,En_Gibbs,1.6 nM,6/6
KLSQSWLYESRNKNSVA,NASTRCS,QQYHRLPLS,GP_Gen,1.6 nM,6/6
KFAEQIMHVYQGANAIA,DATVKSA,QQYLRLPLM,En_Gibbs,1.7 nM,6/6
HLSHSVDLESVHKNSIA,DLMTRES,QQYHRLPLS,En_HC,1.9 nM,6/6
KSSQSFLPESRNKNSVA,GASTRES,QQYHRLPLS,GP_HC,2.1 nM,6/6
KSSQSVTYESRNKNSVA,EASTRES,QQYHRLPLS,Ctrl,2.1 nM,6/6
KLQQSTLYESRNKNSVA,HASTRCS,QQYHRLPLS,GP_Gen,3.2 nM,6/6
MISQVMNTLTRNGDNVA,DLAEREQ,QQYFRLPLS,En_Gen,3.8 nM,6/6
KLSISVLGESRNKNSVA,WASTRES,QQYHRLPLS,Ctrl,4.7 nM,6/6
KVSISYLTESRNKNSVA,EASTRES,QQYHRLPLS,GP_HC,5.0 nM,6/6
KLSQSVLYEGRNKNSVA,NASTRMS,QQYHRLPLS,GP_Gibbs,5.5 nM,6/6
MISNVMNTLTRIGNNVA,DLTEREK,QQYFRLPLS,En_Gen,5.5 nM,6/6
QLMVFNLQAGSTQAAIA,DASHSTD,QQYQRLPLM,En_Gibbs,6.4 nM,6/6
KYYPSYLYESRNKNSVA,QASTRES,QQYHQLPLS,GP_HC,7.4 nM,6/6
HLKDMPGQGPQTYSSIA,HAEIREP,QQYYRLPLM,En_Gibbs,7.7 nM,6/6
TIGSTLMYGMRNSSNVA,EVSERLN,QQYDRLPLI,En_Gen,7.7 nM,6/6
KSSQSVLYESNNKNSVA,HASTRNS,QQYHRLPLS,Ctrl,9.7 nM,6/6
KSSQSILYESGNKNSVA,WASTREI,QQYHRLPLS,Ctrl,10 nM,6/6
MVGQGLMGFSRAKNSIA,QASLRED,QQYHRLPLI,En_HC,11 nM,6/6
KLRMMTLTEGYFKNSVA,QASTREN,QSYHRLPLS,En_HC,12 nM,6/6
KSSISNLGESRNKNSVA,EASTRES,QQYHRLPLS,GP_HC,13 nM,6/6
KSSQSVLYESNNKNNVA,WATTRES,QQYHRLPLS,Ctrl,17 nM,6/6
QVSNTNMQGHAMEHNVA,EATYAEE,QQYARLPLQ,En_Gibbs,22 nM,6/6
KSSQSVLQESRNKNSVA,WADTRED,QQYHRLPLS,Ctrl,27 nM,6/6
MISDLMLYGSRASNPIA,NAETREY,QQYHRLPLE,En_HC,34 nM,2/6
ALTSDLEVEQVNARAVA,NAHAVES,QQYQHLPLS,En_Gibbs,35 nM,6/6
KSSQSVLYESRNKNSVA,AASTRES,QQYHCLPLS,Ctrl,37 nM,1/6
MVYQATLMGTSTRNSIA,NAQMRPD,QQYHRLPLI,En_Gen,37 nM,6/6
KLSQVTHSESRNKNSIA,EMVTREE,QQYDRLPLS,En_HC,40 nM,3/6
KISMLHNQTFNQSNNVA,EMATREK,QQYNRLPLS,En_Gen,52 nM,6/6
KSSQSVLMESRNNNSVA,WASTRAS,QDYQRLPLS,Ctrl,74 nM,2/6
KSSQSVLYESRNKHSVA,WASTRES,QQYNRLPLS,Ctrl,79 nM,5/6
KIDGQTSYDNGRERAIA,DVTIRFW,QQYARLPLL,En_Gibbs,100 nM,5/6
KPSQSVLYESRNKNSVA,WASTRES,QQYHRLPLS,Ctrl,160 nM,1/6
KISTQIPEFEMDDNAIA,SATLRET,QHYQRLPLS,En_Gibbs,290 nM,5/6
TLTQVQGMMSHNKDNVA,DLSTRGN,QQYDRLPLS,En_HC,490 nM,3/6
KCSQSVLYESRNKNSVA,WASTRES,QQYHRWPLS,Ctrl,500 nM,3/6
KSSQSVLYEERNKNSVA,WASTRES,QQYHSLPLS,Ctrl,1.3 µM,2/6
IVSQLMLWGMHAKNSIA,EAELRLN,QQYDRLPLI,En_Gen,1.5 µM,1/6
KRSQSVLYESRNKNSVA,WASTRES,QTYHRLPLS,Ctrl,21 µM,1/6
KSSQSVLYESFNGNSVA,WASTRES,QQDHRLPLS,Ctrl,nd,0/6
FLTYQQDQTGLQYNAIA,QVNLKEN,QQYGRLPLA,En_Gibbs,nd,0/6
KSSQSVLYEDRYKNSVA,WASTRES,QQYLRLPLW,Ctrl,nd,0/6
YLSMMQQMLGDLMHNVA,DANVATM,QDYFRLPLM,En_Gibbs,nd,0/6

The last 5 entries again:

CDR-L1,CDR-L2,CDR-L3,group,Kd,detected
KRSQSVLYESRNKNSVA,WASTRES,QTYHRLPLS,Ctrl,21 µM,1/6
KSSQSVLYESFNGNSVA,WASTRES,QQDHRLPLS,Ctrl,nd,0/6
FLTYQQDQTGLQYNAIA,QVNLKEN,QQYGRLPLA,En_Gibbs,nd,0/6
KSSQSVLYEDRYKNSVA,WASTRES,QQYLRLPLW,Ctrl,nd,0/6
YLSMMQQMLGDLMHNVA,DANVATM,QDYFRLPLM,En_Gibbs,nd,0/6

Of ten entries with the parent sequence, four were seen in most replicates (averages 2.2 nM to 240 nM), three in one and three in none, so single entries are noisy. A sequence measured in both rounds can read differently, since the two assays cover different ranges. The authors averaged sequences with at least three values out of six and counted those with two or fewer as poor binders. Empty control strains, which show no peptide, gave a signal in 4% of pairings with all light chain designs; the median was 430 nM and 95% of these signals were weaker than 38 nM. No background was subtracted.